Assay results taken from ChEMBL document CHEMBL2384981, “Synthesis and structure-activity relationships of a novel and selective bone morphogenetic protein receptor (BMP) inhibitor derived from the pyrazolo[1.5-a]pyrimidine scaffold of dorsomorphin: the discovery of ML347 as an ALK2 versus ALK3 selective MLPCN probe” (Bioorg Med Chem Lett, 2013).

Sequences of proteins named here, by UniProt entry; tags and fusion partners are left off. A change or cut given only in a name is not applied to a line headed by its entry.
UniProt O00238: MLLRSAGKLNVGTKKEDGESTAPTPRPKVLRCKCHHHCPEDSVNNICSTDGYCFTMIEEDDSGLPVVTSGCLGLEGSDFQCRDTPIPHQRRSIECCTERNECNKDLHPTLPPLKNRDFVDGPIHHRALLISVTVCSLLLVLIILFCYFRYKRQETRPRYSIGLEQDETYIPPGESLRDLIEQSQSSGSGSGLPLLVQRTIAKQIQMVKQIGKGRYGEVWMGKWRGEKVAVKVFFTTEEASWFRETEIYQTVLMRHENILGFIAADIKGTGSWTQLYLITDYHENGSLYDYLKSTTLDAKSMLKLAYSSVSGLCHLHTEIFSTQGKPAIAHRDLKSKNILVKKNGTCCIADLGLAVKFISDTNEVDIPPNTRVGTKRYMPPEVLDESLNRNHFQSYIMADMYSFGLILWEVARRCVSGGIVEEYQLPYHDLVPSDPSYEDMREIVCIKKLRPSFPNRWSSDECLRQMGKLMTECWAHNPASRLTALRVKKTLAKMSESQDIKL

Target: Bone morphogenetic protein receptor type-1B (Homo sapiens, UniProt O00238)
Experiment: Inhibition of ALK6 (unknown origin)
How it was run: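 Radiometric in vitro kinase assay on human kinases with 10 μM (33P)γATP.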

Compound `c1cc(-c2cnn3cc(-c4ccc(OCCN5CCCCC5)cc4)cnc23)ccn1` [DORSOMORPHIN] has an IC50 of 235 nM.
